Measurements from ChEMBL document CHEMBL5338767, “A Molecular Toolbox of Positron Emission Tomography Tracers for General Anesthesia Mechanism Research” (J Med Chem, 2023).

Sequences of proteins named here, by UniProt entry; tags and fusion partners are left off.
UniProt P36544, whole entry: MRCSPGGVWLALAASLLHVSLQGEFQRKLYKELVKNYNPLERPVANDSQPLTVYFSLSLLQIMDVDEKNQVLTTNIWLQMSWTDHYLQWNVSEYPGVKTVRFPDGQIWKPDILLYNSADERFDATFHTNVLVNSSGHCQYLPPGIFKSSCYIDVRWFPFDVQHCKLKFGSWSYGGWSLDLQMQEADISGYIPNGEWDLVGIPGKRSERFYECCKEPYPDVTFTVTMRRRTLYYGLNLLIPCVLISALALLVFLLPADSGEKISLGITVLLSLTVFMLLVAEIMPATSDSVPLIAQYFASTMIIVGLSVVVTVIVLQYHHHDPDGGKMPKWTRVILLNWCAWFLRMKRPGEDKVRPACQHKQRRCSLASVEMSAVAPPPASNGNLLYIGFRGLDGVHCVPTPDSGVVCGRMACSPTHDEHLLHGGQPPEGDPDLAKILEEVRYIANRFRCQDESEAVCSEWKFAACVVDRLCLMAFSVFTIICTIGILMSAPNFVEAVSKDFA

Molecular target: Neuronal acetylcholine receptor subunit alpha-7 (Homo sapiens, UniProt P36544)
Assay: Binding affinity to nACh alpha7 receptor (unknown origin) assessed as inhibition constant

With `O=S1(=O)c2cc(N3CCN4CCC3CC4)ccc2-c2cccc([18F])c21` the Ki was 562 nM.
